This note sets out measurements from ChEMBL document CHEMBL2010639, “Structure-activity relationship of selected polyphenol derivatives as inhibitors of Bax/Bcl-xL interaction” (Eur J Med Chem, 2012).

Chains of the proteins cited; added tags and fusions are not shown.
UniProt Q07820, whole entry: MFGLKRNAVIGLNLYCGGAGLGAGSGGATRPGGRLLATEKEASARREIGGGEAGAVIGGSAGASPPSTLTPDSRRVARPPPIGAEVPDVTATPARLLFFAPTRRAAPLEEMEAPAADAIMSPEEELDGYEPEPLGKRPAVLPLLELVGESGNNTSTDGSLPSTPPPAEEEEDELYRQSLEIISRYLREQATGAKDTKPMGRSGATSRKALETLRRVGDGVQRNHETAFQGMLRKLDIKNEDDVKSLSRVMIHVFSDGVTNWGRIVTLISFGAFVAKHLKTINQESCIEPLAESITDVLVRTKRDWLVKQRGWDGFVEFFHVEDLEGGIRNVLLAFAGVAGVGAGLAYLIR

The test deals with Induced myeloid leukemia cell differentiation protein Mcl-1 (Homo sapiens, UniProt Q07820). Description: Binding affinity to Mcl-1.

`CN(C)CC[C@H](CSc1ccccc1)Nc1ccc(S(=O)(=O)NC(=O)c2ccc(N3CCN(Cc4ccccc4-c4ccc(Cl)cc4)CC3)cc2)cc1[N+](=O)[O-]` [ABT 737] had a Ki greater than 20 µM.

What is called Ki is the dissociation constant of the complex between target and ligand, obtained from inhibition or displacement.
